PglD DTNB: blocks C. jejuni PglD acetyltransferase activity; inhibition, % at 12.5 µM; hit rate 0.098% among 360,000; purified PglD enzyme, DTNB colorimetric CoA detection; in the data active = inhibition above about 16%, passing the limit was not always enough; inconclusive = no clear call, values can overlap the other calls
PGC1a acetyl inh: lowers PGC1a acetylation signal in U2OS cells. AlphaScreen anti-acetyl-lysine; with virally co-expressed GCN5 acetyltransferase. inhibition, % at 15.6 µM. hit rate 0.17% among 350,000. AID 651687;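 active = every replicate shows inhibition of at least 40%; inconclusive = mean inhibition at least 40% but some replicate below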;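 note: 0% = neutral control wells and 100% = positive control wells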
C2C12 statin: suppression of simvastatin myotoxicity; rescue of ATP level, % at 7.49 µM; AID 602340; hit rate 0.78% among 330,000; C2C12 myotubes + simvastatin, ATP luminescence, 48 h; scaled: DMSO 0, geranylgeraniol control 100;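 active = mean ATP rescue above about 67%, or every replicate alone reaching that limit, limit read from the data, passing the limit was not always enough; inconclusive = no clear call, values can overlap the other calls; inactive = mean under the limit and some replicate under it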;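 note: myotubes were challenged with 10 µM simvastatin during compound exposure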
E-selectin induc: induces E-selectin expression in human endothelial cells | HUVEC E-selectin immunofluorescence imaging; normalized: neutral wells 0, TNF-alpha wells 100 | activation, % at 7.58 µM | hit rate 0.37% among 260,000 | AID 686992;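 active = mean E-selectin-positive cell signal at least 10% of the positive control, reached in at least 60% of replicates, without over 20% cell loss; inconclusive = no rule given, readout overlaps actives, possibly toxicity-flagged; inactive = the rest, including those meeting only one limit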
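System: HUVEC / Compound: single concentration / Signal: immunofluorescence imaging / Read-out: percent E-selectin-positive cells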
esBAF inh: SWI/SNF esBAF complex inhibition | mouse ES cells, Bmi1-luciferase knock-in reporter, 24 h; 100% = twice the neutral-well signal | reporter increase, % at 12.5 µM | hit rate 2% among 350,000 | AID 602393; in the data active = activation above about 40%; inconclusive = no clear call, values can overlap the other calls;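 note: 0% = median of the plate's neutral control wells and 100% = double that signal; a rise in the Bmi1 reporter signal indicates esBAF inhibition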
Yeast UUG start: alters start codon recognition fidelity in yeast | S. cerevisiae UUG-firefly luciferase reporter, luminescence/redox ratio | activity score, % at 18.7 µM | hit rate 0.13% among 350,000 | AID 602363;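 active means replicate mean at a twofold rise or more, about +100% in these data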;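 further: firefly luciferase made from a UUG start codon reports start codon fidelity; reporter light over untreated wells divided by growth signal over untreated wells; some hits fall short of that in this replicate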
PglD inh SP: confirmation of Campylobacter jejuni PglD acetyltransferase inhibitors; shares compounds with PglD DTNB; Purified C. jejuni PglD, DTNB absorbance 412 nm; inhibition, % at 20 µM; 320 tested, under 10 active; AID 743156;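 active = mean inhibition across replicates of at least 20% with every single replicate also at 20% or more; inconclusive = mean inhibition at least 20% but some replicate falls below 20%; inactive = mean inhibition under 20% and not all replicates reach it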;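 note: initial rate of CoA release by acetyl transfer from AcCoA to the UDP-4-amino sugar; 0% = median of neutral control wells and 100% = median of positive control wells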
Starred values were filed as active, the others as inactive; ? = inconclusive; . = no result given. Hits are enriched below; roughly 2.8% of the tested compounds scored in any of these assays.

| SMILES | PglD DTNB | PGC1a acetyl inh | C2C12 statin | E-selectin induc | esBAF inh | Yeast UUG start | PglD inh SP |
| --- | --- | --- | --- | --- | --- | --- | --- |
| Cc1cccc(NC(=O)CN(C)C(=O)C2CC2)c1C | 22* | -1 | -5 | . | 0 | -15 | 4 |
| CCCCN1C(=O)c2ccc(C(=O)Nc3cccc(C)c3C)cc2C1=O | -6 | 0 | 3 | . | -3 | -19 | . |
| CCCCN1C(=O)c2ccc(C(=O)Nc3ccc(C)c(S(=O)(=O)N(C)C)c3)cc2C1=O | 25* | -1 | 12 | . | 8 | -14 | -1 |
| COc1ccc(NC(=O)Nc2ccc3c(c2)CC(=O)N([C@H](C)CO)C[C@H](C)[C@@H](CN(C)C(=O)NC2CCCCC2)O3)cc1 | -2 | -5 | -21 | 0 | 0 | 8 | . |
| O=C(NCc1cccc(Cl)c1)c1ccc(-n2cncn2)c2ccoc12 | 22* | 16 | 0 | 1 | 8 | 4 | -3 |
| COC(=O)C(=N/Nc1ccccc1C(=O)OC)/C(C)=N/O | 20* | 5 | 0 | 2 | -5 | -31 | 2 |
| C[C@@H](O)C#Cc1ccc([C@H]2[C@H]3CN(C(=O)c4ccc(F)cc4)CCCCN3[C@H]2CO)cc1 | -1 | -6 | . | 0 | . | 5 | . |
| CO[C@H]1CN(C)C(=O)c2cc(NC(=O)NC3CCCC3)ccc2OC[C@@H](C)N(C)C[C@@H]1C | . | . | . | 0 | . | . | . |
| O=[N+]([O-])c1ccc(O)c(C=Nc2cccc3ccccc23)c1 | 0 | . | 15 | . | -7 | -9 | . |
| O=[N+]([O-])c1ccc(O)c(C=Nc2cccc3ncccc23)c1 | 23* | 2 | 11 | . | -2 | -15 | 9 |
| Cc1cc(F)ccc1-c1cc(C(=O)NCC2CCCCC2)[nH]n1 | 5 | 1 | -11 | 1 | 8 | -12 | . |
| CC(C)Oc1cc(F)ccc1-c1cc(C(=O)NCC2CCCCC2)[nH]n1 | 23* | 1 | -8 | 0 | -6 | -9 | 12 |
| CN(C)c1nc(OCC(=O)NC(C)(C)C)nc(N(C)C)n1 | 22* | -3 | 16 | . | -9 | 5 | 1 |
| CCN(CC)C1CCN(C(=O)c2ccc(OC3CCN(C(=O)CCOC)CC3)cc2)C1 (stereo not drawn) | 26* | 9 | 4 | . | 1 | -18 | 5 |
| CO[C@H]1CN(C)C(=O)c2ccc(NC(=O)C3CC3)cc2OC[C@H](C)N(Cc2ccccc2)C[C@H]1C | 1 | -4 | 0 | 0 | -12 | 26 | . |
| Cc1cc(N2CCOCC2)nc2ccc(NC(=O)CCC(=O)N3CCCCC3)cc12 | 24* | -7 | 1 | . | 1 | -10 | -1 |
| C[C@H]1CN([C@@H](C)CO)C(=O)c2ccccc2-c2ccccc2CO[C@H]1CN(C)Cc1ccc(Oc2ccccc2)cc1 | . | . | . | 0 | . | . | . |
| COc1cccc(C(=O)NNC(=O)C(=O)Nc2cccc(Cl)c2C)c1 | 22* | 2 | -4 | . | -2 | -16 | 10 |
| COC(=O)C[C@@H]1CC[C@@H]2[C@H](COc3ccc(NS(=O)(=O)c4ccc(F)cc4)cc3C(=O)N2C)O1 | -1 | 1 | 10 | 0 | -5 | . | . |
| Cc1noc(C)c1NC(=O)N[C@H]1CC[C@@H](CC(=O)Nc2ccc(-c3ccccc3)cc2)O[C@@H]1CO | -2 | -7 | 0 | 0 | -16 | 15 | . |
| OC(CC#CCN1CCCCC1)(c1ccccc1)c1ccccc1 | 27* | -4 | 4 | . | -4 | 6 | -10 |
| C[C@H](CO)N1C[C@H](C)[C@@H](CN(C)S(=O)(=O)c2ccc(F)cc2)Oc2ccc(NC(=O)CCC(F)(F)F)cc2CC1=O | 0 | -4 | 22 | 0 | -9 | 9 | . |
| CC(C)n1nc(Cc2cccc3ccccc23)c(C#N)c1N | 89* | . | 16 | 0 | -3 | -2 | -5 |
| COc1cccc(CNCCc2c[nH]c3ccccc23)c1OCc1ccc(F)cc1 | 26* | -41 | -33 | . | -1 | -7 | 1 |
| COc1cc(CNCCc2c[nH]c3ccccc23)ccc1OCc1ccc(F)cc1 | -2 | -5 | -24 | . | -1 | 15 | . |
| CC(C)Cc1nc(N2CCN(C(=O)c3ccco3)CC2)c(C#N)c2c1CCC2 | 21* | -16 | -20 | . | 11 | -7 | ? |
| CC(C)Cc1nc(N2CCN(C(=O)c3ccccc3)CC2)c(C#N)c2c1CCC2 | 2 | . | . | . | -10 | -7 | . |
| CCCCNC(=S)NNc1c(Cl)cc(Cl)cc1Cl | 23* | 0 | 7 | 2 | -2 | -27 | 10 |
| O=C(NCc1cccnc1)C1CC(c2cccc(Br)c2)=NO1 (stereo not drawn) | 23* | -11 | -3 | 0 | -7 | -21 | -5 |
| COc1cc(C2=NOC(C(=O)NCc3cccnc3)C2)cc(OC)c1OC (stereo not drawn) | -5 | 2 | 0 | 0 | -4 | -30 | . |
| CCCCn1c(SCC(=O)N2CC(C)CC(C)C2)nc2cc(S(N)(=O)=O)ccc21 (stereo not drawn) | 2 | 3 | 24 | . | 1 | -8 | . |
| CCCCn1c(SCC(=O)N2CCCCC2)nc2cc(S(N)(=O)=O)ccc21 | 45* | 10 | 7 | . | -3 | -5 | 2 |
| COc1ccccc1/C=C/C(=O)N1CCN(S(=O)(=O)c2cccs2)CC1 | 32* | 4 | 20 | 0 | 5 | -16 | -1 |
| CCOc1ccc2[nH]c3nc(SCC(=O)NCC4CCCO4)nnc3c2c1 (stereo not drawn) | 24* | -1 | 9 | . | 7 | -6 | 2 |
| CCCCNC(=O)Nc1nnc(-c2ccccc2)o1 | 39* | 12 | -13 | . | 14 | -12 | 2 |
| COc1ccccc1S(=O)(=O)N[C@@H]1CC[C@H](CC(=O)NCc2cc(F)cc(F)c2)O[C@@H]1CO | . | 17 | . | 0 | . | . | . |
| Cc1c(C(=O)O)sc2nc(/C=C/c3cccc(O)c3)[nH]c(=O)c12 | 45* | 1 | 1 | . | 5 | -24 | 79* |
| CCOC(=O)C1=C(C)N(c2ccccc2)C(=O)NC1c1cccc([N+](=O)[O-])c1 (stereo not drawn) | 21* | -2 | . | . | . | -21 | -4 |
| O=Cc1ccc(OCCN2CCCC2=O)cc1 | 44* | -7 | 7 | 0 | 4 | 3 | -4 |
| Cc1ccccc1S(=O)(=O)N1C[C@H](O)COC[C@@H]2O[C@@H](CC(=O)NCc3ccccc3Cl)CC[C@H]21 | 2 | 0 | 10 | 0 | -2 | 53 | . |
| CCOc1ccc(S(=O)(=O)NCCN2CCOCC2)c2ccccc12 | -7 | -12 | -1 | . | 0 | -12 | . |
| CCCOc1ccc(S(=O)(=O)NCCN2CCOCC2)c2ccccc12 | 23* | -6 | 0 | . | 3 | 2 | 1 |
| CCOc1ccccc1NC(=O)N1CCCC1C(=O)Nc1ccc(-n2cnnn2)c(C)c1 (stereo not drawn) | 25* | -5 | 1 | . | 2 | 5 | 1 |
| c1ccc2c(c1)oc1c(Nc3ccc(CN4CCOCC4)cc3)ncnc12 | 20* | -8 | -18 | . | -9 | -26 | 1 |
| c1ccc2c(c1)oc1c(NCCN3CCOCC3)ncnc12 | 7 | -6 | -5 | . | 2 | -14 | . |

A second format for part of the listing above:
Below each compound – PglD DTNB | PGC1a acetyl inh | C2C12 statin | E-selectin induc | esBAF inh | Yeast UUG start | PglD inh SP
COc1ccccc1S(=O)(=O)N[C@@H]1CC[C@H](CC(=O)NCc2cc(F)cc(F)c2)O[C@@H]1CO
→ . | 17 | . | 0 | . | . | .
Cc1c(C(=O)O)sc2nc(/C=C/c3cccc(O)c3)[nH]c(=O)c12
→ 45* | 1 | 1 | . | 5 | -24 | 79*
CCOC(=O)C1=C(C)N(c2ccccc2)C(=O)NC1c1cccc([N+](=O)[O-])c1 (stereo not drawn)
→ 21* | -2 | . | . | . | -21 | -4
O=Cc1ccc(OCCN2CCCC2=O)cc1
→ 44* | -7 | 7 | 0 | 4 | 3 | -4
Cc1ccccc1S(=O)(=O)N1C[C@H](O)COC[C@@H]2O[C@@H](CC(=O)NCc3ccccc3Cl)CC[C@H]21
→ 2 | 0 | 10 | 0 | -2 | 53 | .

High-throughput results: PubChem, Broad Institute
